Target: adenosine A3 receptor (Homo sapiens, UniProt P0DMS8)
Test: Radioligand competition binding assay, adenosine A3 receptor ([3H]-NECA)
Conditions: read-out: % Inhib. 10 μM A3

Chains of the proteins cited; added tags and fusions are not shown.
UniProt P0DMS8, whole entry: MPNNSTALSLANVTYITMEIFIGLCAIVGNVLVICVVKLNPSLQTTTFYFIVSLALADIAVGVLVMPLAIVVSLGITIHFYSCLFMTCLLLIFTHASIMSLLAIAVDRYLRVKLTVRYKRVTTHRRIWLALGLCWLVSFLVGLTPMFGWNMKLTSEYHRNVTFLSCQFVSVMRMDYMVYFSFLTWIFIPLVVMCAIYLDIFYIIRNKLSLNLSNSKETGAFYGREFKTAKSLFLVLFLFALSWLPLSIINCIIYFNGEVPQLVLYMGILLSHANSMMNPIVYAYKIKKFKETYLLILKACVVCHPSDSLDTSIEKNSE

Nc1ncnc2c1ncn2[C@@H]1O[C@H](CO)[C@@H](O)[C@H]1O [Adenosine]
inhibition at 10 µM: 10 ± 1%

Reference: PMC6222516, “Comparative Study of Carborane- and Phenyl-Modified Adenosine Derivatives as Ligands for the A2A and A3 Adenosine Receptors Based on a Rigid in Silico Docking and Radioligand Replacement Assay” (Molecules : A Journal of Synthetic Chemistry and Natural …, 2018)
